Laboratory results: patent US12089591B2 (priority 2005, dated 2024)
Only a part of the results on these compounds is given; other tests are left out.

Tested on: ROUNDUP READY FLEX cotton
Experiment: Greenhouse test of PMIDA-induced necrosis in ROUNDUP READY FLEX cotton
Details: Example H2; composition D + additive 10:1 w/w; 2520 g/ha

OCCN(CCO)CCO
decrease of necrosis (in words): significantly decreased necrosis
